Results reported in patent US12194093B2, “Dosing parameters for CD47 targeting therapies to hematologic malignancies” (The Board of Trustees of the Leland Stanford Junior …, priority 2017, dated 2025).

Biological target: T1, CD47 (Homo sapiens, UniProt Q08722)
T1 construct: Patient peripheral blood and bone marrow aspirates are collected at scheduled time points; endogenous in cells; host or cells: patient peripheral blood and bone marrow aspirate cells (red blood cells, white blood cells, leukemic blasts)
Assay: CD47 receptor occupancy assay on patient blood and bone marrow
Type: in vivo

Hu5F9-G4: a humanized anti-CD47 antibody
receptor occupancy, CD45+ peripheral blood and bone marrow (1 mg/kg at day 1 and day 4, 15 mg/kg at day 8): nearly complete receptor occupancy
CD47 receptor occupancy on leukemic bone marrow cells (two Cohort 3 patients with biologic response, 10 mg/kg twice weekly): 50-60%
